Experimental data reported in patent US9902710B2, “Substituted 6, 7-dialkoxy-3-isoquinoline derivatives as inhibitors of phosphodiesterase 10 (PDE 10A)” (Allergan, Inc., priority 2013, dated 2018).

Target: PDE10A
Test: Diaxonhit phosphodiesterase assay (TR-FRET, LANCE cAMP kit), PDE10A
Type: biochemical
Protocol: Diaxonhit Phosphodiesterase Assay (PDE10A and PDE4D3)
The PDE assay is based on the homogenous time-resolved fluorescence resonance energy transfer (TR-FRET) technology (LANCE® from Perkin Elmer). […] When there is PDE activity, resulting in the degradation of the cyclic nucleotide, the complex is not formed and a decrease in signal is observed.
The phosphodiesterase assay was developed using the LANCE® cAMP kit (PerkinElmer). The assay buffer contained HBSS with 5 mM HEPES, 0.1% BSA, and 1.5 mM MgCl2, pH 7.4. […] Chemical compounds were dissolved in DMSO (final concentration 2% (v/v)).
In a 384-well plate, 2 μL of the inhibitor and 3 μL PDE were added to the well, followed by the addition of 5 μl substrate biotinylated cAMP (1:5). After 60 min incubation at room temperature, 10 μL of assay detection mixture was added to the assay plate. After 1 h at room temperature, the signal was measured on EnVision™ (PerkinElmer).

COc1cc2cncc(Cc3ccc4oc(-c5ccc(C(=O)O)cc5)nc4c3)c2cc1OC [Compound 146, 4-(5-((6,7-dimethoxyisoquinolin-4-yl)methyl)benzo[d]oxazol-2-yl)benzoic acid]
IC50: 4.7 nM
